Test results from ChEMBL document CHEMBL1132798, “N-Cyclohexylethyl-N-noroxymorphindole: a mu-opioid preferring analogue of naltrindole” (Bioorg Med Chem Lett, 2000).

Sequences of proteins named here, by UniProt entry; tags and fusion partners are left off.
UniProt P33535, whole entry: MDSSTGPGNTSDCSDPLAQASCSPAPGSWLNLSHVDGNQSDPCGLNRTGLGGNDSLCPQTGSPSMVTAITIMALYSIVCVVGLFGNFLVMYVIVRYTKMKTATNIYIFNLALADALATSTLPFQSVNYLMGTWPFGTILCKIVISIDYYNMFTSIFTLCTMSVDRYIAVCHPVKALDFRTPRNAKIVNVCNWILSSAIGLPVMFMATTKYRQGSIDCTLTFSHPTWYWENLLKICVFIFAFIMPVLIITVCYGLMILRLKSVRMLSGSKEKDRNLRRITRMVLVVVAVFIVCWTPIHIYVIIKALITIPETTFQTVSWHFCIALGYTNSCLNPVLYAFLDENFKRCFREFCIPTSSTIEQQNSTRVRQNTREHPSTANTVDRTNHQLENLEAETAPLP

Biological target: Mu-type opioid receptor (Rattus norvegicus, UniProt P33535)
Assay: Compound was evaluated for its ability to displace [3H]DAMGO in C6 glioma cells expressing the cloned Opioid receptor mu 1
Format: cell-based

Work on `Oc1ccc2c3c1O[C@H]1c4[nH]c5ccccc5c4C[C@@]4(O)[C@@H](C2)N(CC2CC2)CC[C@]314` [NALTRINDOLE] yielded a Ki of 3.7 nM.
